## Binding of CDR-mutated scFvs to a peptide of the spike HR2 region

The measurements come from Engelhart et al. 2022 (doi:10.1038/s41597-022-01779-4) through the FLAb antibody collection.

All variants were tested on one target, the spike HR2 peptide PDVDLGDISGINAS (SARS-CoV-2).

The variants keep the light chain, the linker and the frameworks of Ab-14 (scFv order VH, a 15-residue (Gly4Ser)3 linker, VL).
VH: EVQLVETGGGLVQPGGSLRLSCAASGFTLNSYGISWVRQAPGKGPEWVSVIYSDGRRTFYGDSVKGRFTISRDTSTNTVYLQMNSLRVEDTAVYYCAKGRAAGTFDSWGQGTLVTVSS
VL: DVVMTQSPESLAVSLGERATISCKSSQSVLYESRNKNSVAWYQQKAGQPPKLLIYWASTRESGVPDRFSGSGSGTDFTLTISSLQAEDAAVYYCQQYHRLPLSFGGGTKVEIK

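The parent was found by panning a naive human phage display library on the peptide. Variants in AAYL49 differ from the parent at up to three CDR positions; double and triple changes were sampled at random. Affinity was read by AlphaSeq, a pooled yeast mating assay with surface-displayed partners. Pairs that bind mate more often; barcode pairs of the diploids are counted by sequencing. A regression on co-assayed BCL2-family reference pairs converts the normalised counts of each replicate to an apparent Kd. There are three technical replicates.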

Changes read parent residue, position, new residue, counted from the first residue of the VH shown.
The read-out is the apparent dissociation constant on a log10 scale (nM): the lower, the stronger.
Replicates are averaged; those with no signal do not enter the mean.
"nd" marks a missing value. The strain was present, yet no cells mated with the target were sequenced in any replicate, which points to weak or no binding.
As a blank, each scFv also met three strains without target: over library AAYL49, 15% of these pairings were detected, typically at 4.06 and seldom below 2.83.

changes	mean log10 Kd (nM)	replicates with signal
V50Q/D62H/G103S	4.79	2/3
Y32L/G61K/D62Q	3.32	2/3
S53I/T58M/D62L	nd	0/3
F27W/F59A	0.75	3/3
S53A/T58Y/Y60G	3.55	2/3
G26I/G33M/K65P	3.37	1/3
F27D/S53F/G55I	4.56	3/3
F59Y/A102K/D106F	nd	0/3
G55L/Y60C/G61H	3.36	1/3
V50N/G55Y/G61Y	nd	0/3
G26S/Y52H/F105V	nd	0/3
R57I/G99L/T104R	nd	0/3
N30A/V50T/G61F	nd	0/3
F59S/S63V/R100S	3.88	1/3
D54Q/G55D/G61T	3.82	1/3
T58G/D62R/G99Y	3.68	2/3
T28A/R56H/V64Y	1.94	3/3
L29W/N30L/S31M	3.11	3/3
F27C/V50F/G99N	nd	0/3
D54L/R56C/R57N	nd	0/3
Y32E/I51D/Y52G	nd	0/3
I34Y/R100F/S107T	3.98	1/3
F59M/R100Q/S107H	nd	0/3
N30R/Y60Q/G99K	nd	0/3
I51H/K65S/F105E	nd	0/3
F27K/L29S/G55Y	nd	0/3
T58M/D62C/K65C	5.10	1/3
Y52W/G55E/G61I	4.12	2/3
S53R/K65M/S107M	nd	0/3
V50F/A101Y/F105E	nd	0/3
I51G/G55P/V64C	nd	0/3
Y32W/D54A/F105K	nd	0/3
G26F/S63T/T104P	nd	0/3
S63L/G99D/T104N	5.53	2/3
T58C/S63I/V64G	nd	0/3
F59C/R100D/A101T	3.28	3/3
G26I/G99F/S107K	nd	0/3
S35E/V50N/K65F	nd	0/3
V50C/Y52E/S53G	3.53	1/3
T28G/S31P/I51F	nd	0/3
D54V/Y60C/S63I	nd	0/3
D54Y/Y60R/A102S	nd	0/3
G33E/T104N	nd	0/3
G26D/T104R/F105I	4.37	1/3
D62F/F105H	4.79	2/3
N30K/T58G/F59I	4.49	2/3
T28C/T104K	4.73	1/3
N30I/Y32D/Y52P	nd	0/3
S63H/A101W/D106Q	6.30	1/3
N30V/G99F/F105M	3.35	1/3
R56V/G103T	1.01	3/3
R56S/Y60L/A101V	1.06	3/3
Y32L/G61N/G99D	4.90	3/3
T28Y/I34P	nd	0/3

For reference, 4 entries of the list once more:

changes	mean log10 Kd (nM)	replicates with signal
T28A/R56H/V64Y	1.94	3/3
S63H/A101W/D106Q	6.30	1/3
S63L/G99D/T104N	5.53	2/3
G26F/S63T/T104P	nd	0/3

In this assay the parent's reference entry averaged 0.65; its copy inside this library read 4.11 (one replicate of three).